These are literature values, as cited in patent US20060084109.

As a reminder, the Kd is the constant that tells how readily two partners part at equilibrium.

This data set deals with T1, Formamidopyrimidine glycosylase (Fpg, MutM) (Escherichia coli) (UniProt P05523).
T1 sequence: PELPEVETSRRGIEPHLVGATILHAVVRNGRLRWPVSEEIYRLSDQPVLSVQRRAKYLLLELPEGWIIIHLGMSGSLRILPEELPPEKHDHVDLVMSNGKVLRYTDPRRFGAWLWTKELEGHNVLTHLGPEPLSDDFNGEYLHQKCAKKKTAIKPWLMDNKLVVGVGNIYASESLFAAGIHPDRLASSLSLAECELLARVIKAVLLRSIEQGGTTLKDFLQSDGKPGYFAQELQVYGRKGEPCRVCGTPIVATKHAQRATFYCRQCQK
The data set is described as follows: filter. The note with it: CITED Vuyisich and Beal 2002; room temperature, 15 min.

For N1 neomycin-regulated aptamer (91-mer), the Kd was 7.5 nM.
Turning to U1 control aptamer, the Kd is 2.7 nM.
